Test results from patent US6387388B1, “Pesticidal formulation” (Merck & Co., Inc., priority 1995, dated 2002).

Assay: Solubility in water

Substance: benzoate salt of 4″-deoxy-4″-epi-methylamino avermectin B1a/B1b [emamectin benzoate]
- solubility in water: about 100 ppm
